Test results published in patent US4130645A (priority 1978, dated 1978).

What was measured:
[1] = system: apple; experiment: Phytotoxicity to apple in apple powdery mildew test; details: 500 ppm
[2] = system: barley; experiment: Phytotoxicity to barley in barley powdery mildew test; details: 500 ppm

SMILES: O=[N+]([O-])Nc1c(Cl)cc([N+](=O)[O-])cc1Cl
- phytotoxicity [1]: M
- phytotoxicity [2]: M
